Active and inactive are the calls of the source. The calls are words filed in the database; no cut-off is given here.
What was measured:
[1] = target: T1, WD repeat-containing protein 5 (Homo sapiens, UniProt P61964); settings: MV4-11, 300 nM
[2] = target: T1, WD repeat-containing protein 5; settings: MV4-11, 300 nM; remark: listed apart in the source
[3] = target: T1, WD repeat-containing protein 5; settings: MV4-11, 600 nM
[4] = target: T1, WD repeat-containing protein 5; settings: MV4-11, 600 nM; remark: listed apart in the source
[5] = target: T1, WD repeat-containing protein 5; settings: MV4-11, 1 uM
[6] = target: T1, WD repeat-containing protein 5; settings: MV4-11, 600 nM; remark: listed apart in the source

With `COc1cc(CN2CCc3c(cc(Cn4ccn(C)c4=N)cc3-c3ccc(F)cc3C)C2=O)cc(OC)c1` the inhibition [1] was “Active”, the inhibition [2] was “Active” and the inhibition [3] was 90%. The inhibition [4] was 90%, the inhibition [5] was “Active” and the inhibition [6] was 90%.

Source: ChEMBL document CHEMBL4376866, “Discovery and Structure-Based Optimization of Potent and Selective WD Repeat Domain 5 (WDR5) Inhibitors Containing a Dihydroisoquinolinone Bicyclic Core” (J Med Chem, 2020)
